This note sets out measurements from PMC5541792, “Simultaneous Determination of 11 Compounds in Gualou Guizhi Granule and Pharmacokinetics Study by UPLC-MS/MS” (Journal of Analytical Methods in Chemistry, 2017).

This data set is described as follows: Stability of analytes in rat plasma samples (method validation). Format: in vitro ADME. The settings on record: high QC nominal concentration, n = 6. As to the method:
Stability of the analytes from plasma samples was performed by determining three different concentrations (low, middle, and high samples) in six replicates under different conditions. It included short-term stability which was assessed by keeping samples at room temperature (25°C) for 24 h, stability which was measured using samples stored at 4°C for 24 h, and freeze-thaw stability that was determined after three freeze-thaw cycles at −80°C.

As to `C[C@@]12C[C@@]3(O)O[C@@H](O1)[C@]1(COC(=O)c4ccccc4)[C@H]3C[C@@]12O[C@@H]1O[C@H](CO)[C@@H](O)[C@H](O)[C@H]1O` [Paeoniflorin, paeoniflorin], the “Freeze-thaw stability (3 cycles) Mean” value (three freeze-thaw cycles at −80°C) was found to be 107.48%.

Take `O=C(/C=C/c1ccc(O)cc1)c1ccc(O)cc1O` [Isoliquiritigenin, isoliquiritigenin]: the “Stability (24 h at room temperature) Mean” value (25°C for 24 h) is listed as 100.94%.
